The test addresses Human platelet COX I (Homo sapiens, UniProt P23219). As to the kind of experiment: COX I inhibition in human platelets (PGE2 EIA).

Amino acid sequences for entries named in this document (tags omitted). Residues count along the entry.
UniProt P23219, 24-599: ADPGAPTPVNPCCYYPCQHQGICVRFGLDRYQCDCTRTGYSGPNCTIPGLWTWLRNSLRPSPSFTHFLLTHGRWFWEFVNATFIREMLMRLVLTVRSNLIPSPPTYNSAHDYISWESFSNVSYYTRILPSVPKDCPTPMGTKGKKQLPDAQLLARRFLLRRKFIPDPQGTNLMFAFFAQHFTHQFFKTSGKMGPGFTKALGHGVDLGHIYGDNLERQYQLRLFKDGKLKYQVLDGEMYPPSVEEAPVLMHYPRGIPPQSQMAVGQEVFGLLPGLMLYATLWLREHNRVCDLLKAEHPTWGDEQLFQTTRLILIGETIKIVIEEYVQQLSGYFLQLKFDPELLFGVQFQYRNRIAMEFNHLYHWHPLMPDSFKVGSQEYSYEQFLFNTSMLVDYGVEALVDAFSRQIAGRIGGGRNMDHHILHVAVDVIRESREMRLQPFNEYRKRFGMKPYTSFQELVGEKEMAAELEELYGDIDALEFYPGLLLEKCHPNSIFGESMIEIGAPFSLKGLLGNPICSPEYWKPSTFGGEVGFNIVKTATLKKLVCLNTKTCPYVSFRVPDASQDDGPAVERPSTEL

By IC50 is commonly meant the point on the concentration scale where inhibition reaches its midpoint. Lower therefore signals greater potency.

`CS(=O)(=O)c1ccc(C2=C(c3ccccc3)C(=O)OC2)cc1` [Rofecoxib] yielded an IC50 of more than 9.66 µM.

The record behind these values is patent US20090155395A1 (SAGITTARIUS LIFE SCIENCE CORP., priority 2007, published 2009).
